# Data published in patent publication US20050170015A1 (priority 2000, published 2005).
# Where two headings read alike, the source gives them in different places.
# Tested on: murine fibrosarcomas (RIF-1 cells)
# Details: vinblastine 1 mg/kg i.p.
smiles,measurement,setting,value
CC[C@]1(O)C[C@@H]2CN(CCc3c([nH]c4ccccc34)[C@@](C(=O)OC)(c3cc4c(cc3OC)N(C)[C@H]3[C@@](O)(C(=O)OC)[C@H](OC(C)=O)[C@]5(CC)C=CCN6CC[C@]43[C@@H]65)C2)C1 [Vinblastine],Delay,"3× (days 0, 3, 6)",1.78 days
same,Delay,"4× (days 0, 3, 6, 8)",1.67 days
